Apparent affinities of Ab-14 variants for a coronavirus HR2 peptide

The measurements come from Engelhart et al. 2022 (doi:10.1038/s41597-022-01779-4) through the FLAb antibody collection.

The target is the same throughout: PDVDLGDISGINAS, from the HR2 region of SARS-CoV-2 spike.

Parent: Ab-14, a human scFv built as VH, a 15-residue (Gly4Ser)3 linker, VL. Only the CDRs of the light chain vary.
VH: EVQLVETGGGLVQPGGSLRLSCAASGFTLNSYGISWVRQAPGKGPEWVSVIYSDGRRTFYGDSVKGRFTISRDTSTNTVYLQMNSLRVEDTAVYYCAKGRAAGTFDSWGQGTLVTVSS
VL: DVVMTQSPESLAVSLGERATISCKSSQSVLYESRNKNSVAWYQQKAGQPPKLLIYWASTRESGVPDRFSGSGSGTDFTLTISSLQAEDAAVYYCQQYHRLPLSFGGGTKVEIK

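Phage display of a naive human antibody library on the peptide gave the parent. In library AAYL50, one, two or three CDR residues were substituted; doubles and triples were drawn at random. The scFvs were displayed on barcoded MATa yeast, the peptide on MATalpha yeast. Pairs that bind mate more often; barcode pairs of the diploids are counted by sequencing. Scores were corrected for input abundance and mapped to Kd with protein pairs of known affinity run in the same pool. Mating was done three times.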

Variants are written as CDR1, CDR2 and CDR3 of the light chain (limits as in the source). Parent: KSSQSVLYESRNKNSVA, WASTRES, QQYHRLPLS. Numbers give log10(Kd / nM), so 0 is 1 nM and 3 is 1 µM. Smaller is tighter. The mean shown is taken over the replicates in which the pair was detected. "n.d." marks a missing value. The strain was present, yet no cells mated with the target were sequenced in that replicate, which points to weak or no binding. Background: pairings of library AAYL50 with three empty control strains gave a value in 18% of cases (median 4.19, 5th percentile 2.99). Values in that range, when seen in few replicates, are hard to tell from nonspecific mating. The control count says in how many pairings with the empty strains this scFv gave a signal, with their mean in brackets.

| # | CDR-L1 | CDR-L2 | CDR-L3 | replicates, log10 nM | log10 Kd (nM), mean | control signals |
|---|---|---|---|---|---|---|
| 1 | KSSQSVLDESRNKNSVA | NASTRES | QMYHRLPLS | n.d. / n.d. / n.d. | n.d. | 0 of 9 |
| 2 | KSSQSVFYEKRNKNSVA | WASTRES | QQYHRLPLS | 1.58 / 1.36 / 1.68 | 1.54 | 1 of 9 (3.90) |
| 3 | KSSQSVLYEPRNKNSVA | WASTRES | QQYHREPTS | 1.56 / 1.43 / 1.70 | 1.56 | 5 of 9 (4.25) |
| 4 | KSSQSVLHESRNKNSVA | WYSTRTS | QQYHRLPLS | n.d. / n.d. / n.d. | n.d. | 0 of 9 |
| 5 | KSSQSVLGESRNKNSVA | MASTYES | QQYHRLPLS | 4.32 / n.d. / n.d. | 4.32 | 1 of 9 (4.91) |
| 6 | KSSQSVLYESRNKNSVS | WAWTRES | QQYHRLPLS | n.d. / n.d. / 4.19 | 4.19 | 1 of 9 (2.94) |
| 7 | KNSQSVLYESRNKNSVV | RASTRES | QQYHRLPLS | n.d. / n.d. / n.d. | n.d. | 1 of 9 (5.31) |
| 8 | QSSQSVLYESRNKNRVA | WADTRES | QQYHRLPLS | 2.92 / n.d. / 2.39 | 2.65 | 0 of 9 |
| 9 | KSSQSVLYESRNKNSVA | WASTRES | MQYHRLPHS | 4.44 / n.d. / n.d. | 4.44 | 2 of 9 (4.57) |
| 10 | KHSQSVLYESRNKNSVA | WAQTRES | QFYHRLPLS | 1.27 / 1.58 / 1.52 | 1.46 | 0 of 9 |
| 11 | KSSQSVEYESRNKWSVV | WASTRES | QQYHRLPLS | n.d. / n.d. / n.d. | n.d. | 0 of 9 |
| 12 | KSEQSVLYESTNKNSVA | WASTRES | QQYHRLPLS | 0.23 / 0.35 / 0.45 | 0.34 | 0 of 9 |
| 13 | KSSQSVLYESRNKNSVA | PASTREN | QQYHRLPKS | n.d. / 4.41 / 5.36 | 4.89 | 4 of 9 (4.36) |
| 14 | KSSQSVLYESRNKNSVA | WKSTRTS | GQYHRLPLS | n.d. / n.d. / n.d. | n.d. | 1 of 9 (4.19) |
| 15 | KASQSVLYFSRNKNSVA | WASTREQ | QQYHRLPLS | 1.07 / 1.22 / 1.08 | 1.12 | 1 of 9 (4.18) |
| 16 | LSSQSVGYESRNKNSVA | WASTREM | QQYHRLPLS | 1.94 / 1.64 / 1.64 | 1.74 | 3 of 9 (3.99) |
| 17 | KSSQSVLYESRNKNSVA | WASKTEW | QQYHRLPLS | 2.95 / n.d. / n.d. | 2.95 | 0 of 9 |
| 18 | KSSQSMIYESRNKNSVA | WASSRES | QQYHRLPLS | 2.66 / 2.64 / 2.79 | 2.70 | 6 of 9 (4.31) |
| 19 | KSSQVVLPESRNKNSVA | WASTRES | QGYHRLPLS | 2.71 / 2.37 / 2.61 | 2.56 | 1 of 9 (4.50) |
| 20 | KSIQSVLYASRNKNSVA | WASTRES | QEYHRLPLS | n.d. / n.d. / n.d. | n.d. | 0 of 9 |
| 21 | KSSQEVSYESRNKNSVA | WASTRES | QQYQRLPLS | n.d. / n.d. / n.d. | n.d. | 0 of 9 |
| 22 | HSSQSVLYEKRNYNSVA | WASTRES | QQYHRLPLS | 1.67 / 2.00 / 2.10 | 1.93 | 1 of 9 (5.97) |
| 23 | KSSCSVLGESRNKNSVA | WRSTRES | QQYHRLPLS | n.d. / n.d. / 4.34 | 4.34 | 1 of 9 (3.79) |
| 24 | KSSQVRLEESRNKNSVA | WASTRES | QQYHRLPLS | 1.02 / 0.99 / 0.92 | 0.98 | 1 of 9 (3.61) |
| 25 | KSHQSVLYESRSKNSVA | WASTPES | QQYHRLPLS | 4.64 / 4.19 / 4.30 | 4.38 | 1 of 9 (5.66) |
| 26 | KSSQSVLYESRNKPAVA | WASMRES | QQYHRLPLS | 0.73 / 0.88 / 0.89 | 0.83 | 4 of 9 (3.88) |
| 27 | KQSQSVLYEWRNKNSVA | WASTRET | QQYHRLPLS | 1.36 / 1.53 / 1.50 | 1.46 | 1 of 9 (3.34) |
| 28 | KSSQSVLYESRNKNSLA | WAPTRES | QQYHRLNLS | n.d. / n.d. / n.d. | n.d. | 2 of 9 (3.06) |
| 29 | KSSQPVLYESRNKNSVA | WAVTRES | CQYHRLPLS | 3.66 / 2.98 / 3.28 | 3.31 | 5 of 9 (4.26) |
| 30 | MSEQSVLYESRNKNSVA | GASTRES | QQYHRLPLS | -0.08 / 0.26 / -0.09 | 0.03 | 6 of 9 (4.53) |
| 31 | KSNQSVLYESRPKNSVA | WASTREH | QQYHRLPLS | 2.07 / 2.68 / 1.99 | 2.24 | 2 of 9 (4.42) |
| 32 | KSSQSVLYESRNKNSVA | WASTMES | AQYHQLPLS | 3.54 / n.d. / n.d. | 3.54 | 2 of 9 (3.66) |
| 33 | KSSQSVLYESRNKYSVA | WASTRES | QFYHRLPSS | n.d. / 3.69 / n.d. | 3.69 | 1 of 9 (2.51) |

Extract of 5 entries:

| CDR-L1 | CDR-L2 | CDR-L3 | replicates, log10 nM | log10 Kd (nM), mean | control signals |
|---|---|---|---|---|---|
| KSIQSVLYASRNKNSVA | WASTRES | QEYHRLPLS | n.d. / n.d. / n.d. | n.d. | 0 of 9 |
| KSSQSVFYEKRNKNSVA | WASTRES | QQYHRLPLS | 1.58 / 1.36 / 1.68 | 1.54 | 1 of 9 (3.90) |
| KSSQSMIYESRNKNSVA | WASSRES | QQYHRLPLS | 2.66 / 2.64 / 2.79 | 2.70 | 6 of 9 (4.31) |
| HSSQSVLYEKRNYNSVA | WASTRES | QQYHRLPLS | 1.67 / 2.00 / 2.10 | 1.93 | 1 of 9 (5.97) |
| KSSQSVLDESRNKNSVA | NASTRES | QMYHRLPLS | n.d. / n.d. / n.d. | n.d. | 0 of 9 |